We go through one compound from PubChem BioAssay AID504773 (Broad Institute, 2011).

The target of this assay is Golgi-associated PDZ and coiled-coil motif-containing protein (Homo sapiens) (UniProt Q9HD26). The assay can be described thus: potency against CAL PDZ-peptide interaction – biochemical, fluorescence polarization, Cerulean-tagged CAL PDZ, cherry-picks, dose response (AID 504773).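 Further: 0% = DMSO neutral wells and -100% = excess unlabeled competitor peptide wells.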 The following applies: CAL PDZ-peptide binding, 1 h; at 50 µM (top of the series).

The entries are a selection whose mix differs from that of the whole data set. Entries with a potency or affinity are not part of this list. Calls of active or inactive are those of the source.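 How the source made its calls: active means polarization signal falls with dose and the fitted half-maximal concentration is at or below ten times the sample's top valid dose; inconclusive means flat curve at 30 to 70% inhibition, or poor fit; inactive means signal rises, flat within 30%, or potency beyond limit.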

For the compound `CC1CCNP(=O)(N(CCCl)CCCl)O1` (stereo unspecified), the activity change, negative = inhibition was inactive: 22.7%.
